B1: Histone H3K18me2 ([…]) peptide, biotinylated (peptide)
peptide: not shown
modifications: dimethyl-lysine at 18; biotin on the added C-terminal lysine; C-terminal amide
B2: Histone H3 ([…]) peptide, biotinylated (peptide)
peptide: not shown
modifications: biotin on the added C-terminal lysine; C-terminal amide

Target: T1, HA-Lamin A (human, UniProt P02545 1-646)
T1 sequence: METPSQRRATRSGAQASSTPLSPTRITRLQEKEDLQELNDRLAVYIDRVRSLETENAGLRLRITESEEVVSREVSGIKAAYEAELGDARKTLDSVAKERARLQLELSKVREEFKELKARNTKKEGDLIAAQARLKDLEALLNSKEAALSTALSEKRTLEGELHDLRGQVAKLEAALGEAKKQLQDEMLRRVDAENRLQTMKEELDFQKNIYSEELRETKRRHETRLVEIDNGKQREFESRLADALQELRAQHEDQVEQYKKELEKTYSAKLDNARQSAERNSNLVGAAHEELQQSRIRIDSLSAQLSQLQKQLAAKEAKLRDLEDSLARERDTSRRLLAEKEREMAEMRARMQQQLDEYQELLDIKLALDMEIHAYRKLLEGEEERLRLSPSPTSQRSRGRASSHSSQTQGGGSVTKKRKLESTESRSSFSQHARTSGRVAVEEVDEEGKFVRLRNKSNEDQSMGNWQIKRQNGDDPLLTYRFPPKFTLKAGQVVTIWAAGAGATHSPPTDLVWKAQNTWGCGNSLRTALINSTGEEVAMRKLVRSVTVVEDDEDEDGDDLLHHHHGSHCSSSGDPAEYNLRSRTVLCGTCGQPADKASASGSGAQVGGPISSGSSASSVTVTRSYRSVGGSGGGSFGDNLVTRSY
Assay: pull-down

| Binder | binding result |
| --- | --- |
| B1 | binds |
| B2 | binds |
